Our source for the IC50 values is patent US20240308992A1 (Biopolar Youtang(Guangdong) Pharmaceutical Co., Ltd., priority 2021, published 2024).

Protein sequences, listed by entry. Tags and fused reporters are not part of them.
UniProt O94768, whole entry: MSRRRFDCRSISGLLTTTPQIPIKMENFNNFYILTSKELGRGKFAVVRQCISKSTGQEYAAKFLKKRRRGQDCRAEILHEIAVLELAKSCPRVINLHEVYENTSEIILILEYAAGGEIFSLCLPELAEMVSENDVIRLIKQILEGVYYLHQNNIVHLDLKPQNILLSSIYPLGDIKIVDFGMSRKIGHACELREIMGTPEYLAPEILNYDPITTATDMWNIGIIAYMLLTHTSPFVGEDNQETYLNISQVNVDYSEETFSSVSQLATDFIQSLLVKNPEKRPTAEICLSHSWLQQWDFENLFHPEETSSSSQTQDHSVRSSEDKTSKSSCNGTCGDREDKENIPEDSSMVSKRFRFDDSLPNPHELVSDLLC

The target of this experiment is Drak2 (Homo sapiens, UniProt O94768). In words: Drak2 activity test, ADP-Glo kinase assay (Promega). The class given is biochemical. The settings on record: read-out: IC50_Drak2, inhibition of Drak2 kinase activity, 2 h room temperature, activity range classes. Background: In ADP-Glo the light output rises with the ADP produced.

SMILES strings stand for the structures. Some compounds may have been tested in ways that are not shown here.

For `CCCCC(=O)Nc1csc(-c2cncc(-c3ccc(C(=O)N(c4cnn(C)c4)C4CCN(C)CC4)c(OC)c3)n2)c1`, the IC50 is 11 to 100 nM.
